Values of other authors in US20090275605A1, “3,11 b-cis-Dihydrotetrabenazine for the Treatment of a Proliferative Disease or an Inflammatory Disease” (CAMBRIDGE LABORATORIES (IRELAND) LIMITED, priority 2005, published 2009).

Protein sequences, listed by entry. Tags and fused reporters are not part of them.
UniProt Q01827, whole entry: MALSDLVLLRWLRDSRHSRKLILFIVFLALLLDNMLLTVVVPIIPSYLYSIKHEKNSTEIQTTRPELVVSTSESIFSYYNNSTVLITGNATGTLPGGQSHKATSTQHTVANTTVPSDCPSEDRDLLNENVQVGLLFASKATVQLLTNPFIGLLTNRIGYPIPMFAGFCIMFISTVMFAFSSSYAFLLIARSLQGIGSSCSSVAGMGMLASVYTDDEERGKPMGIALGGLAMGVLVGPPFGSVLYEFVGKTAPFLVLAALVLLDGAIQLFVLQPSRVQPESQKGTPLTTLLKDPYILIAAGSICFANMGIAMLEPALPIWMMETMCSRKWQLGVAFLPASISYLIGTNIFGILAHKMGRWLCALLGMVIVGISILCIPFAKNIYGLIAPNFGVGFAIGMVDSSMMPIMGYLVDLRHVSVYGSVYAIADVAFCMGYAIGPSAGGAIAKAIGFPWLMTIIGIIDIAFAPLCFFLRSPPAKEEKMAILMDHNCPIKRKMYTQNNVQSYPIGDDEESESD

Biological target: VMAT2 (Rattus norvegicus, UniProt Q01827)
Settings: in vitro; ratio versus (−)-α-[11C]dihydrotetrabenazine; cited from earlier work

For “(+)-α-dihydrotetrabenazine [(+)-α-[^11C]dihydrotetrabenazine]”, the “Ki for [3H]methoxytetrabenazine relative to the Ki of the (−)-α isomer” value is given as greater than 2000 fold.
